The text below walks through data of patent US20060110401A1, “Mixture of peptides from c and ns3 proteins of the hepatitis c virus and applications thereof” (priority 2002, published 2006).

Several values for one entry are separate records, joined by “and”; a condition that tells them apart may be missing. Equal values may be shown once. Marks after values point to notes of the source that are not given here.

This experiment relates to T lymphocytes derived from PBMCs from patients chronically infected with HCV. The format is cell-based, human.

With `CC[C@H](C)[C@H](NC(=O)[C@H](Cc1c[nH]cn1)NC(=O)[C@@H](NC(=O)[C@H](CC(C)C)NC(=O)CNC(=O)[C@@H](NC(=O)[C@H](Cc1ccccc1)NC(=O)[C@@H](NC(=O)CNC(=O)[C@H](CCC(=O)O)NC(=O)[C@H](Cc1c[nH]c2ccccc12)NC(=O)[C@H](Cc1ccccc1)NC(=O)[C@H](CCC(=O)O)NC(=O)[C@H](CC(C)C)NC(=O)[C@H](Cc1c[nH]cn1)NC(=O)[C@H](CC(=O)O)NC(=O)[C@@H](N)CCC(N)=O)C(C)C)[C@@H](C)O)[C@@H](C)O)C(=O)N[C@@H](CC(=O)O)C(=O)N[C@@H](C)C(=O)N[C@@H](Cc1c[nH]cn1)C(=O)N[C@@H](Cc1ccccc1)C(=O)N[C@@H](CC(C)C)C(=O)N[C@@H](CO)C(=O)N[C@@H](CCC(N)=O)C(=O)N[C@H](C(=O)N[C@@H](CCCCN)C(=O)N[C@@H](CCC(N)=O)C(=O)N[C@@H](CO)C(=O)NCC(=O)N[C@@H](CCC(=O)O)C(=O)N[C@@H](CC(N)=O)C(=O)N[C@@H](CC(C)C)C(=O)O)[C@@H](C)O` [29N 1552-1583], the IL4 is 57 pg/mL and 44 pg/mL; the IL10 is 31* pg/ml and 38 — pg/ml.
